Key:
[1] = target: T1, recombinant human full length Chk1 (Homo sapiens, UniProt O14757); assay: In vitro kinase inhibition (CycLex), phosphorylation of serine 216 on GST-Cdc25C; format: biochemical
T1 construct: baculovirus derived recombinant human full length Chk1 with histidine tag; histidine tag; host or cells: baculovirus system (insect cells) for Chk1; E. coli for the GST-Cdc25C substrate
T1 sequence (O14757 1-476): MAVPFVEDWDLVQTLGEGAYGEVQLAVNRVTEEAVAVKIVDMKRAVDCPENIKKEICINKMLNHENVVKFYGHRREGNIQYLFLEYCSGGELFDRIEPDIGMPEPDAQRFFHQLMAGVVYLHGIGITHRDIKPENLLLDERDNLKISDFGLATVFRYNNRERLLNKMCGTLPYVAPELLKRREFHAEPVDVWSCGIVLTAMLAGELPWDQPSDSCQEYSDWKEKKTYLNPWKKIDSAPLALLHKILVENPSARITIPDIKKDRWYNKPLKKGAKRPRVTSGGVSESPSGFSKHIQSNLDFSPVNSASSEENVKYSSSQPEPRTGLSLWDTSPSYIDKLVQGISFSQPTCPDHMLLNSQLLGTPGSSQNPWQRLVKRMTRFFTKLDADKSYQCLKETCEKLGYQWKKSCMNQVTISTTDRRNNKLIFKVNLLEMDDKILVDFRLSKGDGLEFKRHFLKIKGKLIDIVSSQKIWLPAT
Experimental: (§1) In vitro kinase inhibition analysis was performed by CycLex, Co. Ltd., Nagano, Japan. Briefly, baculovirus derived recombinant human full length Chk1 with histidine tag or E. Coli derived recombinant human full length Chk2 fused with GST were used as kinases. E. Coli derived recombinant GST-Cdc25C (amino acis 167-267) was used as a substrate. Reaction conditions were 20 mM Hepes-KOH (pH7.5), 1 mM DTT, 80 μg/ml BSA, 10 mM MgCl2 and […] at 30 degree for 60 min. The phosphorylation of serine 216 on GST-Cdc25C was detected by anti-Cdc25C-phosphorylated 5216 antibody with enzyme linked immune assay.

By UniProt entry, the sequences of proteins in these tests, tags left out.
UniProt O96017, whole entry: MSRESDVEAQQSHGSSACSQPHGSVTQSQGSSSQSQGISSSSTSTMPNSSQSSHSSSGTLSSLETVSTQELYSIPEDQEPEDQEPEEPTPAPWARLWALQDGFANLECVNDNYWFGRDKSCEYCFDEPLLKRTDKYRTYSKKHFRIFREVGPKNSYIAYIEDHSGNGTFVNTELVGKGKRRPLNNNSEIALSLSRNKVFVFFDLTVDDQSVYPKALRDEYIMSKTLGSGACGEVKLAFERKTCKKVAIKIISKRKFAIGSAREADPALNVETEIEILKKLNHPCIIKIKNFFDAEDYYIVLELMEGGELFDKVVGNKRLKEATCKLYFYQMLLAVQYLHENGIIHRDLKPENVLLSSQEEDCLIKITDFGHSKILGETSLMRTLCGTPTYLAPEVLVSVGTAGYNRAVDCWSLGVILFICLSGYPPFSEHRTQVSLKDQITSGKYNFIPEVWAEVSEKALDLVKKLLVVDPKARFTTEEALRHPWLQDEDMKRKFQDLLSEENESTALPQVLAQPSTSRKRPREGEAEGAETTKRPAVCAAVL

[2] = target: T2, recombinant human full length Chk2 (Homo sapiens, UniProt O96017); assay: as above; format: biochemical
T2 construct: E. Coli derived recombinant human full length Chk2 fused with GST; host or cells: E. coli
Experimental: as §1

N=C(N)NCCC[C@@H](NC(=O)[C@@H](CCCNC(=N)N)NC(=O)[C@@H](CCC(N)=O)NC(=O)[C@@H](CCCNC(=N)N)NC(=O)[C@@H](CCCNC(=N)N)NC(=O)[C@@H](CCCNC(=N)N)NC(=O)[C@@H](CC1CCCCC1)NC(=O)[C@@H](Cc1c(F)c(F)c(F)c(F)c1F)NC(=O)[C@@H](CO)NC(=O)[C@@H](Cc1c[nH]c2ccccc12)NC(=O)[C@@H](CO)NC(=O)[C@H](N)Cc1ccc(C(=O)c2ccccc2)cc1)C(=O)O [CBP501, (d-Bpa)(d-Ser)(d-Trp)(d-Ser)(d-Phe-2,3,4,5,6-F)(d-Cha)(d-Arg)(d-Arg)(d-Arg)(d-Gln)(d-Arg)(d-Arg)]
IC50 [1]: 7.9 µM
IC50 [2]: 18.6 µM
